Test results from PubChem BioAssay AID720704 (The Scripps Research Institute Molecular Screening Center, 2013).
The list shows a part of the results, in another mix than the full data. Activity calls are given as the source filed them. Rule as the data show it: active = inhibition above about 11%; inactive = the rest.

Sequences of proteins named here, by UniProt entry; tags and fusion partners are left off.
UniProt Q01970, whole entry: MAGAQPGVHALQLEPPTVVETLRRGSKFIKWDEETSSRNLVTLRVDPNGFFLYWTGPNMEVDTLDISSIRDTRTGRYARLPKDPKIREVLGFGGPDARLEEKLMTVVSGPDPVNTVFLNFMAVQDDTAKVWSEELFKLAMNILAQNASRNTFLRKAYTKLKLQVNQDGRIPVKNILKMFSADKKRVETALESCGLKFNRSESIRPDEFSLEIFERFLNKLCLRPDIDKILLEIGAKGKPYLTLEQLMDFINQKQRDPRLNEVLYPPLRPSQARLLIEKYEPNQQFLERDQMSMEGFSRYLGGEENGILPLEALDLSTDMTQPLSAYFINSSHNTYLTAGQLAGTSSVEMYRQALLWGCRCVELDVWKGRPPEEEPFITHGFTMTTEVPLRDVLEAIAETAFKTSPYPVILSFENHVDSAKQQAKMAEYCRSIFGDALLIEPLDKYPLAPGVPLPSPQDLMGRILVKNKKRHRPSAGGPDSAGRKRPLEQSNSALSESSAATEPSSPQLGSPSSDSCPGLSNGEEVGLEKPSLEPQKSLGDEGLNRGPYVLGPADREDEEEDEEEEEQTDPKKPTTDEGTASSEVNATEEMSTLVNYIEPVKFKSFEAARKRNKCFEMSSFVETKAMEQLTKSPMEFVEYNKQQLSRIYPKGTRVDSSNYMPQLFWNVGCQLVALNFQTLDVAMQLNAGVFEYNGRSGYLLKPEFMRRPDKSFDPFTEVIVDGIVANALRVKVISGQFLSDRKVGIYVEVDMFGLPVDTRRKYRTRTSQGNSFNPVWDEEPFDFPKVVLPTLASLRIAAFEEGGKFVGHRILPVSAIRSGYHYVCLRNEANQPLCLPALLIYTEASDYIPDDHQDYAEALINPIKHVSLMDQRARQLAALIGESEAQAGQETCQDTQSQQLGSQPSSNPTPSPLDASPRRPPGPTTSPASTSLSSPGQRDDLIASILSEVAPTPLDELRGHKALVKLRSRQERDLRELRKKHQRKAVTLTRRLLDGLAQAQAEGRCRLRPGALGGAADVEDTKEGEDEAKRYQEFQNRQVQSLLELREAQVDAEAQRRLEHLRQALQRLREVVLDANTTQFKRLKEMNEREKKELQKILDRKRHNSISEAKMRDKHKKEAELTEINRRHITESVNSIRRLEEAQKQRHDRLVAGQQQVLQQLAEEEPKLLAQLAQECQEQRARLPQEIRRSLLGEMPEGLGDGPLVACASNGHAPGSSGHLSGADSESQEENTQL

Molecular target: 1-phosphatidylinositol 4,5-bisphosphate phosphodiesterase beta-3 (Homo sapiens) (UniProt Q01970)
Assay: human PLC-beta3 inhibitors, primary screen, biochemical, fluorescence (AID 720704);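 also: 0% = median of compound wells on plate and 100% = full blocker control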
Conditions: Purified PLC-beta3, fluorogenic substrate, at 12.2 µM, stronger effect = higher value

Compound | inhibition
CCCCn1nnnc1C(c1ccnc2ccccc12)N1CCC(n2c(=O)[nH]c3ccccc32)CC1 (stereo unspecified) | inactive: 1.84%
CCC(c1nnnn1C(C)(C)C)N1CCC(n2c(=O)[nH]c3ccccc32)CC1 (stereo unspecified) | inactive: -1.09%
O=C(NCC1(N2CCOCC2)CCCCC1)c1cc(F)c(F)cc1Cl | inactive: -3.25%
COc1cc(OC)c(C(=O)NCC2(N(C)C)CCCCC2)cc1OC | inactive: -8.84%
CN(C)c1cccc(C(=O)NCC2(N3CCCCC3)CCCCC2)c1 | inactive: -78.6%
COC(=O)C1(Nc2ccccc2)CCN(Cc2ccccc2)CC1 | inactive: 3.49%
COc1ccc(CN(CCCl)CCCl)cc1Cl | inactive: -2.07%
CC(C)c1ccc(NC2CCN(C(=O)OC(C)(C)C)CC2)cc1 | inactive: -7.08%
CCCOc1ccc(C(=O)NCC2(N(C)C)CCCCC2)cc1OC | inactive: -6.89%
Cc1ccc(C(=O)NCC2(N(C)C)CCCCC2)o1 | inactive: 5.67%
COc1ccc(C(c2nnnn2C2CCCC2)N2CCC(n3c(=O)[nH]c4ccccc43)CC2)cc1 (stereo unspecified) | inactive: 2.92%
O=C(NCC1(N2CCCCC2)CCCCC1)c1cncc(Br)c1 | inactive: -6.51%
CN1CCC(Nc2cccc(F)c2)CC1 | inactive: 7.48%
O=C(NCC1(N2CCCCC2)CCCCC1)c1cccc([N+](=O)[O-])c1 | inactive: -5.28%
CSc1ccc(C(=O)NCC2(N3CCOCC3)CCCCC2)cc1 | inactive: 5.62%
N#CC1(Nc2ccccc2)CCN(CCc2ccccc2)CC1 | inactive: 4.06%
O=c1[nH]c2ccccc2n1C1CCN(C(c2ccccc2OC(F)(F)F)c2nnnn2C2CCCC2)CC1 (stereo unspecified) | inactive: 0.91%
CCN1CCC(Nc2ccc(Cl)cc2)CC1 | inactive: -3.5%
O=C(NCC1(N2CCCCC2)CCCCC1)c1ccc(OC(F)F)cc1 | inactive: -5.6%
CC(C)(C)n1nnnc1C(c1ccccc1OC(F)(F)F)N1CCC(n2c(=O)[nH]c3ccccc32)CC1 (stereo unspecified) | inactive: 3.08%
CCCCn1nnnc1C(c1cccc2ccccc12)N1CCC(n2c(=O)[nH]c3ccccc32)CC1 (stereo unspecified) | inactive: -1.5%

Compound | inhibition
CC(C)c1ccc(C(=O)NCC2(N3CCOCC3)CCCCC2)cc1 | inactive: -3.42%
COc1ccc(NC2CCN(C(=O)OC(C)(C)C)CC2)cc1 | inactive: -6.12%
CN1CCN(CCOC(=O)C(O)(c2ccccc2)c2ccccc2)CC1 | inactive: 2.98%
O=C(NCC1(N2CCOCC2)CCCCC1)c1cc(=O)[nH]c2ccccc12 | inactive: -6.17%
COc1cc(C(=O)NCC2(N3CCCCC3)CCCCC2)ccc1OC(F)F | inactive: -0.77%
O=C(NCC1(N2CCCCC2)CCCCC1)c1cccc(C(F)(F)F)c1 | inactive: -5.02%
CCOC(=O)N1CCC(Nc2ccc(F)cc2)CC1 | inactive: 1.92%
COc1ccc(NC2CCN(CCc3ccccc3)CC2)c(OC)c1 | inactive: -2.53%
O=C(NCC1(N2CCCCC2)CCCCC1)c1ccc(F)cc1 | inactive: -4.53%
CCCCOc1ccc(C(=O)NCC2(N3CCOCC3)CCCCC2)cc1 | inactive: 2.2%
CCCCn1nnnc1C(c1cc2ccccc2o1)N1CCC(n2c(=O)[nH]c3ccccc32)CC1 (stereo unspecified) | inactive: 3.5%
O=P1(N(CCCl)CCCl)SCCCS1 | inactive: 1.92%
CCOc1ccc(C)cc1CN(CCCl)CCCl | inactive: -2.85%
O=C1CCN(Cc2ccccc2)CC1 | inactive: -1.22%
CC(C)(C)n1nnnc1C(c1ccccc1)N1CCC(n2c(=O)[nH]c3ccccc32)CC1 (stereo unspecified) | inactive: 2.07%
O=c1[nH]c2ccccc2n1C1CCN(C(c2cccc3ccccc23)c2nnnn2C2CCCC2)CC1 (stereo unspecified) | inactive: 3.19%
COc1cc(C(=O)NCC2(N(C)C)CCCCC2)ccc1OC(F)F | inactive: -7.39%
CCOC(=O)N1CCC(Nc2cccc(C)c2)CC1 | inactive: -6.29%
O=c1[nH]c2ccccc2n1C1CCN(C(c2ccccc2)c2nnnn2C2CCCCC2)CC1 (stereo unspecified) | inactive: 0.33%
Cc1cccc(NC2(C#N)CCN(Cc3ccccc3)CC2)c1 | active: 14.9%
CSc1ccccc1C(=O)NCC1(N2CCCCC2)CCCCC1 | inactive: -7.19%

Compound | inhibition
CCCCn1nnnc1C(c1cccs1)N1CCC(n2c(=O)[nH]c3ccccc32)CC1 (stereo unspecified) | inactive: -0.69%
O=C(NCC1(N2CCCCC2)CCCCC1)c1cccs1 | inactive: -1.3%
CCCCn1nnnc1C(CC)N1CCC(n2c(=O)[nH]c3ccccc32)CC1 (stereo unspecified) | inactive: 1.07%
O=C(NCC1(N2CCCCC2)CCCCC1)c1ccc(=O)[nH]c1 | inactive: -8.1%
CCC(c1nnnn1C1CCCC1)N1CCC(n2c(=O)[nH]c3ccccc32)CC1 (stereo unspecified) | inactive: 1.95%
CC(C)(C)OC(=O)N1CCC(N(C(=O)c2ccccc2)c2ccc(F)cc2)CC1 | inactive: 1.56%
COc1ccc(C(=O)NCC2(N3CCCCC3)CCCCC2)c(OC)c1OC | inactive: -7.1%
COc1ccc(C(=O)NCC2(N3CCCCC3)CCCCC2)cc1 | inactive: -4.18%
CCCCn1nnnc1C(c1ccc(OC)cc1)N1CCC(n2c(=O)[nH]c3ccccc32)CC1 (stereo unspecified) | inactive: 1.78%
CCOC(=O)N1CCC(Nc2ccc(OC)cc2)CC1 | inactive: 0.45%
COc1ccc(Cl)cc1C(=O)NCC1(N2CCOCC2)CCCCC1 | inactive: 2.47%
O=c1[nH]c2ccccc2n1C1CCN(C(c2cc3ccccc3o2)c2nnnn2C2CCCCC2)CC1 (stereo unspecified) | inactive: -0.59%
O=C(OC1CN2CCC1CC2)C1c2ccccc2Oc2ccccc21 (stereo unspecified) | inactive: 0.9%
O=C(NCC1(N2CCCCC2)CCCCC1)c1ccc(Cl)s1 | inactive: -7.71%
N#CC1(Nc2ccccc2)CCN(Cc2ccccc2)CC1 | inactive: 0.21%
O=C(NCC1(N2CCOCC2)CCCCC1)c1cc2ccccc2o1 | inactive: -2.33%
Cc1cc(C)cc(N(C(=O)c2ccccc2)C2CCN(C(=O)OC(C)(C)C)CC2)c1 | inactive: -3%
O=c1[nH]c2ccccc2n1C1CCN(C(c2ccccc2OC(F)(F)F)c2nnnn2C2CCCCC2)CC1 (stereo unspecified) | inactive: -0.16%
O=C(NCC1(N2CCCCC2)CCCCC1)c1ccc(Cl)nc1 | inactive: -19.4%
